This note sets out measurements from patent US20240026032A1 (Alexion, published 2024).

This series concerns the molecule itself. Briefly: BLI (Octet), PD-1 Fc captured on anti-human Fc tips, PD-1 Fc as analyte. The procedure: Final dissociation in PBS was performed in the last step on the Bio-Layer Interferometry (BLI) data.

B1: Programmed Death 1 (PD-1) Fc chimera (R&D Systems, Catalog # 1086-PD-050) (Fc fusion, human, UniProt Q15116 25-167, looked up)
chain: LDSPDRPWNPPTFSPALLVVTEGDNATFTCSFSNTSESFVLNWYRMSPSNQTDKLAAFPEDRSQPGQDCRFRVTQLPNGRDFHMSVVRARRNDSGTYLCGAISLAPKAQIKESLRAELRVTERRAEVPTAHPSPSPRPAGQFQ
notes: Bought reagent; not shown: Fc part of the bought chimera (captured by anti-human Fc tips)
In the case of B1, the binding result is listed as “no binding”.
